The target in this assay is T1, TtSlyDFL (full-length SlyD from Thermus thermophilus) (Thermus thermophilus, UniProt Q5SLE7).
T1 sequence (Q5SLE7 1-149): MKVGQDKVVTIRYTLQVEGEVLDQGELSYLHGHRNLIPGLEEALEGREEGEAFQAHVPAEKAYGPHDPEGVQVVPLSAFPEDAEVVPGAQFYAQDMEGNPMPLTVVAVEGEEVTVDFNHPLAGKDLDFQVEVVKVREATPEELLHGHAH
Briefly: ITC binding of peptides to full-length TtSlyD. The settings on record: ITC two-site model, site 1 (IF domain) stoichiometry; 25 °C; 20 mM HEPES, 100 mM NaCl, pH 7.5.

The values below come from publication PMC5034536, “Molecular insights into substrate recognition and catalytic mechanism of the chaperone and FKBP peptidyl-prolyl isomerase SlyD” (BMC Biology, 2016).

No end group written: not given here.

On to TRYWNAKMKPFIFGA-NH2 [S2-P25A], for which the N1 is given as 0.92 ± 0.01.
To TRYWNPKMKEFIFGA-NH2 [S2-P29E] belongs 0.88 ± 0.02.
In the case of TRYANPKMKPFIFGA-NH2 [S2-W23A], the N1 came out at 0.76 ± 0.03.
